# Laboratory results: US20260007679A1, “METHODS OF TREATING CANCER USING 3-(4-((4-(MORPHOLINOMETHYL)BENZYL)OXY)-1-OXOISOINDOLIN-2-YL)PIPERIDINE-2,6-DIONE” (Celgene Corporation, priority 2012, published 2026)
# Key:
# Assay type in all cases: cell-based
# Karpas-1106P = experiment: 5 day 3H thymidine incorporation; details: Homo sapiens, PMBL
# Protocol: (§1) A panel of DLBCL cell lines of various cytogenetic features was tested for their sensitivity to the antiproliferative activity of compounds I and I-S (FIG. 17). Cells were treated with the tested compound for 5 days at 37° C.; proliferation of cells was determined using ^3H-thymidine incorporation method. […] ABC-subtype cells appear more sensitive to the antiproliferative effect than other subtype cells including GCB-DLBCL and PMBL cells.
# OCI-Ly10 = experiment: 5 day 3H thymidine incorporation; details: Homo sapiens, ABC subtype
# Protocol: as §1
# OCI-Ly19 = experiment: 5 day 3H thymidine incorporation; details: Homo sapiens, GCB subtype
# Protocol: as §1
# OCI-Ly3 = experiment: 5 day 3H thymidine incorporation; details: Homo sapiens, ABC subtype
# Protocol: as §1
# RIVA = experiment: 5 day 3H thymidine incorporation; details: ABC subtype
# Protocol: as §1
# SUDHL4 = experiment: 5 day 3H thymidine incorporation; details: Homo sapiens, SU-DHL-4; GCB subtype
# Protocol: as §1
# TMD8 = experiment: 5 day 3H thymidine incorporation; details: Homo sapiens, ABC subtype
# Protocol: as §1
# U2932 = experiment: 5 day 3H thymidine incorporation; details: Homo sapiens, ABC subtype
# Protocol: as §1
# WSU-DLCL2 = experiment: 5 day 3H thymidine incorporation; details: Homo sapiens, WSUDLCL2; GCB subtype
# Protocol: as §1
# [1] = tested on: NCI-H929 cells (Control, Revlimid-sensitive, parental); experiment: Proliferation and viability by 7-AAD staining; details: Homo sapiens, NCI-H929, 120 h, read-out: IC50, proliferation
# [2] = tested on: Revlimid-resistant NCI-H929 R1-10; experiment: Proliferation and viability by 7-AAD staining; details: Homo sapiens, NCI-H929, 120 h, read-out: IC50, proliferation
# [3] = tested on: Revlimid-resistant NCI-H929 R2-10; experiment: Proliferation and viability by 7-AAD staining; details: Homo sapiens, NCI-H929, 120 h, read-out: IC50, proliferation
# [4] = tested on: Revlimid-resistant NCI-H929 R3-10; experiment: Proliferation and viability by 7-AAD staining; details: Homo sapiens, NCI-H929, 120 h, read-out: IC50, proliferation
# [5] = tested on: Revlimid-resistant NCI-H929 R4-10; experiment: Proliferation and viability by 7-AAD staining; details: Homo sapiens, NCI-H929, 120 h, read-out: IC50, proliferation
structure (smiles),measurement,setting,value
"Nc1cccc2c1CN(C1CCC(=O)NC1=O)C2=O (centres unmarked) [Revlimid, lenalidomide, reference compound]",IC50,Karpas-1106P,> 100 µM
same,IC50,OCI-Ly10,0.15 µM
same,IC50,OCI-Ly19,> 100 µM
same,IC50,OCI-Ly3,> 100 µM
same,IC50,RIVA,> 100 µM
same,IC50,SUDHL4,> 100 µM
same,IC50,TMD8,75 µM
same,IC50,U2932,1.6 µM
same,IC50,WSU-DLCL2,> 100 µM
same,IC50,[1],1 µM
same,IC50,[2],> 30 µM
same,IC50,[3],> 30 µM
same,IC50,[4],> 30 µM
same,IC50,[5],> 30 µM
